{
  "source": "patent US10640556B2",
  "about": "“Anti amphiregulin antibodies, compositions comprising same and uses thereof” (Yeda Research and Development Co. Ltd., priority 2015, dated 2020)",
  "test_system": "MLS ovarian cancer cells",
  "assay": "MLS ovarian tumor xenograft in nude mice",
  "assay_type": "in vivo",
  "conditions": "MLS tumors, antibodies injected into the peritoneum, six weeks, data not shown",
  "experimental": "FIGS. 7A-7C illustrate that AR30, an anti-AREG monoclonal antibody, inhibits tumorigenic growth of human ovarian cancer cells in mice. FIG. 7A, female nude mice (6 weeks old) were inoculated subcutaneously with MLS ovarian cancer cells (2×10^6 per animal). Once tumors became palpable, mice were randomized into two groups. Eleven mice were injected intraperitoneally with an anti-AREG mAb (AR30; 200 μg/mouse; twice a week, on days: 8, 11, 14, 17, and 21). The control group also included 11 mice. Shown are means±S.D. values; FIG. 7B, female nude mice (6 weeks old) were inoculated subcutaneously with MLS ovarian cancer cells (2×10^6 per animal). Once tumors became palpable, mice were randomized into four groups. One group (8 mice) was injected intraperitoneally with the AR30 mAb (100 μg/mouse twice a week, on days: 8, 14, 17, 21, 24 and 28). Another group (8 mice) was treated with cisplatin (5 mg/kg; on days 8 and 21). The fourth group was treated with a combination of mAb AR30 and cisplatin. The control group included 12 mice; and FIG. 7C, the indicated MLS tumors were excised, and their average weights determined. Representative tumors were photographed.\nAll animal procedures were approved by the Weizmann Institute of Science's review board. […] Tumor volumes were monitored twice a week, and body weights were measured once a week.",
  "data": [
    {"substance": "cetuximab [reference compound]", "values": [
      {"measurement": "tumor growth", "result": "partly inhibited tumor growth"}
    ]}
  ]
}
